# Apparent affinities of Ab-14 variants for a coronavirus HR2 peptide

Target peptide (SARS-CoV-2 spike, HR2 region): PDVDLGDISGINAS

Each scFv is VH, three GGGGS repeats, VL, as in the parent Ab-14, and differs from it in the CDRs of the light chain only.
VH: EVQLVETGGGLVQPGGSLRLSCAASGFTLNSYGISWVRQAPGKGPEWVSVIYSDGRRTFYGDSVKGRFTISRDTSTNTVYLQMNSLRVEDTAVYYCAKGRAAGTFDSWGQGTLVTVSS
VL: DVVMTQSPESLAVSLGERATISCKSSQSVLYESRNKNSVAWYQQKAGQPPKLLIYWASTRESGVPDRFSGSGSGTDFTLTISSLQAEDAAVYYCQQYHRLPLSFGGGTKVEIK

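These sequences belong to a second round, designed from the earlier measurements on random variants of the parent. Group labels follow the data file (Ctrl: baseline library sampled from a position-specific scoring matrix, with some repeated check sequences; Rand: our label for a block that the file lists under HC and that is probably the random mutants of the ten best first-round binders; GP: Gaussian process model; HC: hill climbing; Gen: genetic algorithm; Gibbs: Gibbs sampling; a sequence that several methods proposed may carry one label only). The scFvs were displayed on barcoded MATa yeast, the peptide on MATalpha yeast. Pairs that bind mate more often; barcode pairs of the diploids are counted by sequencing. Scores were corrected for input abundance and mapped to Kd with protein pairs of known affinity run in the same pool. The assay was run in six technical replicates.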

Each variant is given by its three light chain CDRs, as the data file delimits them; those of the parent are KSSQSVLYESRNKNSVA, WASTRES, QQYHRLPLS.
This list holds designs with at most six substitutions.
The Kd shown is the geometric mean over detected replicates; a lower Kd is a better binder.
The range of this assay differs from that of the first round, and the authors advise against merging the two.
The parent sequence was in this pool as ten entries: three were never detected, three once, and four in most replicates, with averages from 2.2 nM to 240 nM.
The authors averaged sequences with at least three values out of six and counted those with two or fewer as poor binders.
Empty control strains, which show no peptide, gave a signal in 4% of pairings with all light chain designs; the median was 430 nM and 95% of these signals were weaker than 38 nM. No background was subtracted.

With KSSQSVLYESRGKNSVA | WASTRES | QQYHTLPLS [Ctrl] the result was 66 nM (6 of 6 replicates). Variant KSSQSVLYESRNKNNVA | WASTRES | QQYFVLPTS [Ctrl] gave 11 µM (1 of 6 replicates). Variant KLSQSVLYESRNKNSVA | NASTRCS | QQYHRLPLS [GP_Gen] gave 480 pM (6 of 6 replicates). Variant KLEQSWLYESRNKNSVA | NASTRMS | QQYHRLPLS [GP_Gen] showed 630 pM (6 of 6 replicates). Variant KVSQSEDYGSRNKWSVA | NASTRES | QQYHRLPLS [GP_Gibbs] gave 1.4 nM (6 of 6 replicates). Variant KAQQSNPYESRNKWSVA | NASTRES | QQYHRLPLS [GP_Gibbs] showed 1.2 nM (6 of 6 replicates).

Variant KLSQSELYESRNKNSVA | EASTRLS | QQYHRLPLS [GP_Gen] gave 1.4 nM (6 of 6 replicates). For KLSQSVLYESRNKNSVA | NASTREQ | QQYHRLPLM [GP_Gen], the assay gave 710 pM (6 of 6 replicates). With KSSQSVLGEDRNKNSVA | DASTRES | QQYHRLPLS [GP_HC] the result was 1.5 nM (6 of 6 replicates). For KQSQSILYESRNKTSVA | DASTRES | QQYHRLPLS [Rand], the assay gave 24 nM (6 of 6 replicates). With KSSQSVLYDSRNKNSVA | GASTRES | QSYHRLPLS [Ctrl] the result was 1.6 nM (6 of 6 replicates). With KLQQSMLYESRNKNSVA | NASTRES | QQYHRLPLS [GP_Gen] the result was 1.4 nM (6 of 6 replicates).

Variant KLSQSVLYEERNKNSVA | QASTRLS | QQYHRLPLS [GP_Gen] showed 590 pM (6 of 6 replicates). Variant KVSQSVLYESFNKNSVA | EASTRES | QQYHRLPLS [Ctrl] gave 75 nM (5 of 6 replicates). For KDSQSVLFESRNKNSVA | WASTRES | QQYHRLPLS [Ctrl], the assay gave 5.6 nM (1 of 6 replicates). For KSSQSVLYESKNKNSIA | QASTREG | QQYHRLPLS [Ctrl], the assay gave 7.9 nM (6 of 6 replicates). For KLSQSVLYESRQKNSVA | NASTREM | QQYHRLPLS [GP_Gen], the assay gave 490 pM (6 of 6 replicates). With KSLGSQEYESRNKNSVA | HASTRED | QQYHRLPLS [GP_HC] the result was 920 pM (6 of 6 replicates).

For KSSYSTLYESGNKNSVA | HASTRED | QQYHRLPLS [GP_HC], the assay gave 1.0 nM (6 of 6 replicates). Variant KTGQGVLYESRNKNSVA | GASVRES | QQYHRLPLS [GP_HC] gave 790 pM (6 of 6 replicates). Variant KSQQSVLYESRMKNSVA | WASTRES | QSYHRLPPS [Ctrl] gave 210 nM (2 of 6 replicates). For KISQSYLGESRNVNSVA | NASTRES | QQYHRLPLS [GP_Gibbs], the assay gave 700 pM (6 of 6 replicates). For KLRQSTLYESRNQNSVA | WASTRLS | QQYHRLPLS [GP_HC], the assay gave 5.9 nM (6 of 6 replicates). Variant KVSISYLMESRNKNSVA | EASTRES | QQYHRLPLS [GP_HC] showed 3.6 nM (6 of 6 replicates).

For KASQSVLYESRNKRPVA | HASTRES | QQYHRLPLS [Ctrl], the assay gave 39 nM (4 of 6 replicates). Variant KMPQSELYESRNKNSVA | NASQRES | QQYHRLPLS [GP_Gen] gave 980 pM (6 of 6 replicates). Variant KSSQSWLYESRNKNSVA | GASTRES | QQYHRLPLI [GP_HC] showed 1.9 nM (6 of 6 replicates). Variant KLSQSMLYESRAKNSVA | NASTRES | QQYHRLPLS [GP_Gen] showed 250 pM (6 of 6 replicates). Variant KSSQHVYNESRNKNSVA | WASTRES | QQYHRLPLS [Ctrl] showed 180 nM (6 of 6 replicates). Variant KLSQSWLYESRNPNSVA | NASTRMS | QQYHRLPLS [GP_Gen] gave 550 pM (6 of 6 replicates).

For KVSQSWLQESRNKNSVA | EASTRQS | QQYHRLPLS [GP_HC], the assay gave 460 pM (6 of 6 replicates). For KFSTSVLYEWRNMNSVA | WASTRES | QQYHGLPLS [Ctrl], the assay gave 810 nM (2 of 6 replicates). For KLEQSQLYESRNKNSVA | NASTRMS | QQYHRLPLS [GP_Gen], the assay gave 770 pM (6 of 6 replicates). Variant KISQSVLYESRNKNSVA | WAYTRES | QQYHRLPLS [Ctrl] gave 7.3 nM (6 of 6 replicates). Variant KLGCGVLYEGRNKNSVA | GASTRES | QQYHRLPLS [GP_HC] showed 2.9 nM (6 of 6 replicates). Variant HSSMSVAYESRNKNSVA | NASTRES | QQYHRLPLS [GP_HC] showed 2.6 nM (6 of 6 replicates).

With KLSQSVLYESRNKNSVA | NASTRWS | QQYHRLPLS [GP_Gen] the result was 460 pM (6 of 6 replicates). For KLSWSMLYESRNKNSVA | NASQRES | QQYHRLPLS [GP_Gen], the assay gave 1.4 nM (6 of 6 replicates). Variant KSSQSVLYESRNKNSVA | SASTREL | QQYHRLPLS [Ctrl] showed 15 nM (6 of 6 replicates). For KLSQSQGYESRNKNNVA | NASTRES | QQYHRLPLS [GP_Gen], the assay gave 1.1 nM (6 of 6 replicates). Variant KLSQSVLYESRNWNNVA | DASTRES | QQYHRLPLS [GP_Gen] gave 280 pM (6 of 6 replicates). For KSHQEPLYEQAPKNSVA | WASTRES | QQYHRLPLS [Ctrl], the assay gave 230 nM (3 of 6 replicates).

Variant RSSQSHLYESRNKNSVA | WASTRES | QQYSRLPLS [Ctrl] gave 8.0 nM (6 of 6 replicates). Variant KSSQSVLQESRNKNSVA | WASTRES | KQYHRLPLS [Ctrl] gave 210 nM (5 of 6 replicates). Variant KLEQSQLYESRNKNSVA | SASHREH | QQYHRLPLS [GP_Gibbs] showed 1.5 nM (6 of 6 replicates). For KLSQSGLYESRNKNSVA | EASTREQ | QQYHRLPLS [GP_Gen], the assay gave 1.3 nM (6 of 6 replicates).

Repeated from above, the 8 best binders with a signal in all replicates:

For KLSQSMLYESRAKNSVA | NASTRES | QQYHRLPLS [GP_Gen], the assay gave 250 pM (6 of 6 replicates).
For KLSQSVLYESRNWNNVA | DASTRES | QQYHRLPLS [GP_Gen], the assay gave 280 pM (6 of 6 replicates).
For KVSQSWLQESRNKNSVA | EASTRQS | QQYHRLPLS [GP_HC], the assay gave 460 pM (6 of 6 replicates).
For KLSQSVLYESRNKNSVA | NASTRWS | QQYHRLPLS [GP_Gen], the assay gave 460 pM (6 of 6 replicates).
For KLSQSVLYESRNKNSVA | NASTRCS | QQYHRLPLS [GP_Gen], the assay gave 480 pM (6 of 6 replicates).
For KLSQSVLYESRQKNSVA | NASTREM | QQYHRLPLS [GP_Gen], the assay gave 490 pM (6 of 6 replicates).
For KLSQSWLYESRNPNSVA | NASTRMS | QQYHRLPLS [GP_Gen], the assay gave 550 pM (6 of 6 replicates).
For KLSQSVLYEERNKNSVA | QASTRLS | QQYHRLPLS [GP_Gen], the assay gave 590 pM (6 of 6 replicates).

Source: Li et al. 2023 (doi:10.1038/s41467-023-39022-2), MIT Lincoln Laboratory and A-Alpha Bio; data file from the FLAb repository.